These results are taken from ChEMBL document CHEMBL3988442, “University of Dundee, Small-Polar-MMV Screening Library” (2021).

Sequences of proteins named here, by UniProt entry; tags and fusion partners are left off.
UniProt Q13131, whole entry: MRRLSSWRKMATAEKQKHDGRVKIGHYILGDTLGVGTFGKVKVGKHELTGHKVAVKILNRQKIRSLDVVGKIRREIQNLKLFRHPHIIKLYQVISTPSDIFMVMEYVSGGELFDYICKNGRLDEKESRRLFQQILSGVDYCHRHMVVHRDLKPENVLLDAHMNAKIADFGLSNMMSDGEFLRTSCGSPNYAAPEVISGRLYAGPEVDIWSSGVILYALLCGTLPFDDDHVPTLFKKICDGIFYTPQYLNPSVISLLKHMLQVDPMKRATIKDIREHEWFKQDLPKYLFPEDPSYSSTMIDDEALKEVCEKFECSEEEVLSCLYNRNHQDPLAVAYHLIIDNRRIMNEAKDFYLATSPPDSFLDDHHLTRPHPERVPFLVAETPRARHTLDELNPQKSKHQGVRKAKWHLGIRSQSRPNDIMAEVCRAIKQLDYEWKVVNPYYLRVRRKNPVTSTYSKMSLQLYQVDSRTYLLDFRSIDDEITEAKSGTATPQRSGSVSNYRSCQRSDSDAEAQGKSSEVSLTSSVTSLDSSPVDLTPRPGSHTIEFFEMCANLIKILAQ

Only a part is listed here, and it is no random draw.

The target in this test is AMP-activated protein kinase, AMPK (Homo sapiens) (UniProt P54646+O43741+P54619+Q9UGJ0+Q9Y478+Q13131+Q9UGI9). Description: AMP-dependent Kinase enzyme assay. An in vitro enzyme assay that detects ADP turnover that is directly proportional to AMPK activity. This uses naive AMPK that is activated during the assay with MK-8722. Format: functional. Also on record: scale not given: direction of the effect not stated beside the values. Particulars: 30 µM.
Consider `COc1ccccc1NC1CCN(Cc2nc(C)c(C)s2)CC1`, for which the Percent Effect was -14.5%. In the case of `COc1ccccc1NC1CCN(Cc2ccc(Br)cc2)CC1` it was -2.92%. In the case of `COc1ccc(OC)c(NC2CCN(C)CC2)c1` it was -115%; in that of `COc1ccccc1NC1CCN(Cc2scnc2C)CC1`, -12.4%. The value for `COc1ccccc1NC1CCN(Cc2ccc(Br)s2)CC1` was 4.84%; that for `COc1ccccc1NC1CCN(Cc2nc(C)ccc2O)CC1` was -13.9%; that for `COc1cc(NC2CCN(C(C)c3nnc(C)o3)CC2)cc(OC)c1` (centres undefined) was -47.6%. For the compound `Cc1nnc(C(C)N2CCC(Nc3ccccc3C)CC2)o1` (centres undefined), the Percent Effect came to 1.58%. In the case of `Cc1ccc(NC2CCN(C(C)c3nnc(C)o3)CC2)cc1` (centres undefined) it was 10.8%.
